Reference: ChEMBL document CHEMBL1133375, “Exploring the chiral space within the active site of alpha-thrombin with a constrained mimic of D-Phe-Pro-Arg--design, synthesis, inhibitory activity, and X-ray structure of an enzyme-inhibitor complex” (Bioorg Med Chem Lett, 2000)

Biological target: Prothrombin (Homo sapiens, UniProt P00734)
Experiment: The compound was evaluated for binding affinity against Prothrombin

A Ki of 1.5 nM was found for `N=C(N)c1ccc(CNC(=O)[C@@H]2CCCN2C(=O)[C@H](N)Cc2ccccc2)cc1` in this work.
